Results as given in paper PMC13199644, “Optimized Quantitative Bacterial Two-Hybrid (qB2H) for Protein–Protein Interaction Assessment” (Computational and Structural Biotechnology Journal, 2026).

The chains behind the UniProt entries cited, without tags or fusion partners. Where a name states a change or a piece, a line headed by the entry shows the natural chain unless it says otherwise. Residues count along the entry.
UniProt Q12306, 2-97: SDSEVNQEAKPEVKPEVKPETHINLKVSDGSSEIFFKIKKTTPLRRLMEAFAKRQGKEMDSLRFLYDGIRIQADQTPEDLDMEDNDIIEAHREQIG
UniProt Q6VMQ6: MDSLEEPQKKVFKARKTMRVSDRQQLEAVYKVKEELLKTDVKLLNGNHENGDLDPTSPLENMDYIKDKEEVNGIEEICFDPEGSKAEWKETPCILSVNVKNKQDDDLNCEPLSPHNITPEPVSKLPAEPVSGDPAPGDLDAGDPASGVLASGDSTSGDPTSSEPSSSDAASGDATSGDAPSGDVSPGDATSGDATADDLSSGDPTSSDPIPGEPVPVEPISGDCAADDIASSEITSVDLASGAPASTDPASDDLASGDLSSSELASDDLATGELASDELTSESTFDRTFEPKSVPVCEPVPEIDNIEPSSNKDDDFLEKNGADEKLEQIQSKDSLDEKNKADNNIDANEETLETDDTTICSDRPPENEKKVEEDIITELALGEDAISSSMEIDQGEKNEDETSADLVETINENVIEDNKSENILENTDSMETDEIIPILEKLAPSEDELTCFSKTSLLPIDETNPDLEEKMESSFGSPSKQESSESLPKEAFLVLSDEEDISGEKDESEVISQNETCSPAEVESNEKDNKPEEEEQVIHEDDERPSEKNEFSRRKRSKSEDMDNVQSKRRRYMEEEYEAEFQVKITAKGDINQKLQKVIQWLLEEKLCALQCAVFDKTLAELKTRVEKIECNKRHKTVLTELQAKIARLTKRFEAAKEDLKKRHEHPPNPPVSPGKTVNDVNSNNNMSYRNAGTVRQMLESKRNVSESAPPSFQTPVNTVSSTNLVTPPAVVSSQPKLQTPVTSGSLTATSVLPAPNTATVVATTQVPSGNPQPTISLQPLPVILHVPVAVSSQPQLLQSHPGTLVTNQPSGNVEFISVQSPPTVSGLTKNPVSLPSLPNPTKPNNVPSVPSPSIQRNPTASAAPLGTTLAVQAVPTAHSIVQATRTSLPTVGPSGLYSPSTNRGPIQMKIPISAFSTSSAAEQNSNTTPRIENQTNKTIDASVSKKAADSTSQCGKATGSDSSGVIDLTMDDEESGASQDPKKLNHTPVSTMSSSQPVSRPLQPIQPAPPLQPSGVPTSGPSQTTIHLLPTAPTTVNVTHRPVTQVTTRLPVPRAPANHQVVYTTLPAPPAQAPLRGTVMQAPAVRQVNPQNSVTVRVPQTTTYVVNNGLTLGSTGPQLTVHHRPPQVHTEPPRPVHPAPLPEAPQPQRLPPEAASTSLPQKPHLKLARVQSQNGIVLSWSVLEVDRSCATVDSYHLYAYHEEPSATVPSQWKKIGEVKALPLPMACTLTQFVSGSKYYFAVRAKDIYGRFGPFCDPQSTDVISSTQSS

Target: T1, SMT3 (Saccharomyces cerevisiae, UniProt Q12306)
T1 construct: SMT3; UNIPROT: Q12306; 2-97; Saccharomyces cerevisiae; expressed in transfected cells; host or cells: E. coli BL21(DE3) transformed with VN594 plus a pBRα rpoA-fusion plasmid
Experiment: qB2H v1 fluorescence, SMT3 (SUMO) vs SUMO-interacting motifs
Format: cell-based, Escherichia coli
Settings: BL21(DE3), qB2H v1, cI-SMT3 2-97, IPTG(20µM)
Protocol: Precultures of untransformed (for intrinsic fluorescence evaluation) and transformed SB39 cells were diluted (3 μl into 300 μl of fresh medium) in 2-ml microtubes and grown in ThermoMixer C (Eppendorf; 37 °C at 900 rpm) for 2 h. Cultures with an OD600 of approximately 0.5 were then mixed with 100 μl of the same medium containing 4× inducer concentration. Final inducer concentrations, chosen on the basis of maximal signal output, were 20 μM IPTG for v1 or v2 and 200 μM IPTG plus […] for v3 series. The induced cultures were grown overnight at 18 °C, diluted (1 μl) in freshly filtered (0.22 μm) phosphate-buffered saline buffer (1 ml per OD unit), and analyzed using guava easyCyte HT (488-nm blue laser). The gating for event analysis was set to minimize background noise (fewer than 100 gated events per 10 μl of sterile phosphate-buffered saline). Ten thousand events were collected per culture, and the MFI was recorded. […]
MFI(x) represents the MFI of a given condition or culture. MFI(low) corresponds to the fluorescence produced by SB39 cells cotransformed with VN519 and VN550, indicating no detectable interaction (Kd > 100,000 nM). […]
Interactions involving distinct protein domains and folding variants were assessed using qB2H systems v1, v2, and v3. […]

Substance: MCAF1_SIM: SUMO-interacting motif, Q6VMQ6 957-981, Homo sapiens (KATGSDSSGVIDLTMDDEESGASQD; SUMO-interacting motif; UniProt Q6VMQ6 957-981, looked up, fragment)
- Norm. MFI: 60.82%
